Experimental data taken from US7074412B2, “Pharmaceutical composition” (The University of Zurich, priority 2003, dated 2006).

Tested on: standardized defects in the calvarial bone of rabbits
Test: bone regeneration in standardized calvarial bone defects (guided bone regeneration)
Type: in vivo, New Zealand white rabbits
Details: same animal model, comparable to NMP treated PLGA membrane; results not shown
Excerpt: The size of the defect was below the critical size defect and was selected to resemble the typical magnitude of an osteotomy gap in maxillofacial surgery and defects in dentistry [Klinge, B., et al., J Oral Maxillofac Surg 50 (1992) 241–249].
The digital image of the vertical section from the middle of the defect was taken with a scale (mm) in order to localize the defect margins, which were 6 mm apart. In combination with the calvarial bone thickness of the surrounding bone the total area of the defect could be reconstructed. Using the Adobe Photoshop 5.0 program the total pixel number of the defect area could be determined. The part of the total defect filled by bone was also determined and expressed by the pixel number of the bony area. Percentage of bone healing was calculated as follows:
Bone healing [%]=pixel number of the bone area×100/total pixel number of defect.
To evaluate the bone regeneration, standardized defects were generated in the calvarial bone of rabbits. New Zealand white rabbits (3.5–4.0 kg) were treated according to the guidelines of the local authorities. The protocol for these studies was approved and controlled by the kantonalem Verterinäramt, Zurich. After sedation four 6 mm craniotomy defects were created with a 6 mm trephine in a dental hand piece. To seal the defects from the dural side 6.1 mm in diameter membrane was poked through the calvarial bone. […]

**Q.** “rhBMP-2: osteoinductive recombinant bone morphogenetic protein 2, set forth in SEQ ID NO:1” was tested. Which “amount needed to obtain a comparable magnitude of bone regeneration” value did it give?
**A.** 15 µg
